Antibody variant affinities, Ab-91 heavy chain, assay 2

All variants were tested on one target, the spike HR2 peptide PDVDLGDISGINAS (SARS-CoV-2).

Each scFv is VL, three GGGGS repeats, VH, as in the parent Ab-91, and differs from it in the CDRs of the heavy chain only.
VL: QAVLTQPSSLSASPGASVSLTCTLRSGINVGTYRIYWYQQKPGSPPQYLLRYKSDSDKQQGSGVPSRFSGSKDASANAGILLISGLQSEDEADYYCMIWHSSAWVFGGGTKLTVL
VH: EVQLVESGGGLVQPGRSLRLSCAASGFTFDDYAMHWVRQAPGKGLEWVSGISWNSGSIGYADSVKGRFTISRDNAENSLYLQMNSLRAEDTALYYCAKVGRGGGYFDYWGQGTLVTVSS

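Phage display of a naive human antibody library on the peptide gave the parent. The library (AAYL51) carries one to three amino acid substitutions per variant, with no insertions or deletions. Affinity was read by AlphaSeq, a pooled yeast mating assay with surface-displayed partners. Binding brings cells together so that they mate, and sequencing counts the barcode pairs among the diploids. The ratio of observed to expected reads was calibrated, replicate by replicate, on BCL2-family standards whose Kd was known from biolayer interferometry. Each pool was mated in three replicate cultures.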

The whole VH of each variant is written out.
Scale: log10 of Kd in nM, estimated from mating counts; low values are strong binders.
An entry "nd" has no value in the source: the pair was not observed among the diploids in that replicate. This suggests poor binding but is not conclusive.

Variant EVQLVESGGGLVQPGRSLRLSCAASGFTFDRYAMHWVRQAPGKGLEWVSGISWNSGSIGYADSVKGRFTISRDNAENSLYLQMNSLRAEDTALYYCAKVGRGRGYFDYWGQGTLVTVSS showed 2.83, 3.16, 2.27 (controls 2 of 9).
Variant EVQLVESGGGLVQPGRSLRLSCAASGFTFWDYAMHWVRQAPGKGLEWVSGNSWNSGSIGYADSHKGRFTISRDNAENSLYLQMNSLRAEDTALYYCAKVGRGGGYFDYWGQGTLVTVSS showed nd, nd, nd (controls 0 of 9).
Variant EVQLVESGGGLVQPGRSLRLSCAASGFDFDDYAMHWVRQAPGKGLEWVSGISWNSRSIGVADSVKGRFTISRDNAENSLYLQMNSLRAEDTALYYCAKVGRGGGYFDYWGQGTLVTVSS showed nd, nd, nd (controls 1 of 9).
Variant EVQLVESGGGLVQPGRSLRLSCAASGFTFDDCAIHWVRQAPGKGLEWVSGISWNSGSFGYADSVKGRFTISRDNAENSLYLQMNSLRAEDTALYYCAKVGRGGGYFDYWGQGTLVTVSS showed 4.46, 4.31, 5.78 (controls 6 of 9).
Variant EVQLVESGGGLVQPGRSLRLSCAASWFSFDDYAMHWVRQAPGKGLEWVSGPSWNSGSIGYADSVKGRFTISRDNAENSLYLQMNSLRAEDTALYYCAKVGRGGGYFDYWGQGTLVTVSS showed nd, nd, nd (controls 0 of 9).
Variant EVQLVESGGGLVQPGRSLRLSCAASNFTFDDYAMHWVRQAPGKGLEWVSGIGWNSGSIGYADSRKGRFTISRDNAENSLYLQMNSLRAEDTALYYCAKVGRGGGYFDYWGQGTLVTVSS showed nd, 6.21, nd (controls 3 of 9).
Variant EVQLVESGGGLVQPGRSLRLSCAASGFTFDDYAMEWVRQAPGKGLEWVSGISWESGFIGYADSVKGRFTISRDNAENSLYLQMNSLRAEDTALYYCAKVGRGGGYFDYWGQGTLVTVSS showed nd, 5.28, nd (controls 3 of 9).
Variant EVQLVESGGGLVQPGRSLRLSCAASGFTFDDYAVHWVRQAPGKGLEWVSGISWNSGSIGYADSVKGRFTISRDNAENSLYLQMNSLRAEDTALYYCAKVGRGGGYFDYWGQGTLVTVSS showed nd, nd, nd (controls 0 of 9).
Variant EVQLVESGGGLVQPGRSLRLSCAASGFTFDDYAMHWVRQAPGKGLEWVSGISWNSGSIGYADSVKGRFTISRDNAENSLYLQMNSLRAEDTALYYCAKVGRGGGYLDYWGQGTLVTVSS showed 3.99, 3.65, 3.84 (controls 3 of 9).
Variant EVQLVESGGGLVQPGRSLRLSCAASPFTFDDYAMHWVRQAPGKGLEWVSGISWNSGFIGYADSVKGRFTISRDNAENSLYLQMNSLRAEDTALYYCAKVGRGGDYFDYWGQGTLVTVSS showed nd, 3.72, nd (controls 0 of 9).
Variant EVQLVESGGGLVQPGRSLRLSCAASGFTFDESAMHWVRQAPGKGLEWVSGISWNSGSIGYADSVKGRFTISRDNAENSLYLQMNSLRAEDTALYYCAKEGRGGGYFDYWGQGTLVTVSS showed 0.95, 0.96, 0.33 (controls 2 of 9).
Variant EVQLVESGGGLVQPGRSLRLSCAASGFTFDDYAMHWVRQAPGKGLEWVSGISWNSGSIGKADSKKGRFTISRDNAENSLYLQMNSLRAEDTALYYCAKPGRGGGYFDYWGQGTLVTVSS showed nd, nd, nd (controls 1 of 9).
Variant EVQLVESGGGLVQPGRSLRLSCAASGFTFDDYAMHWVRQAPGKGLEWVSGIDWYSGSIGYADSVKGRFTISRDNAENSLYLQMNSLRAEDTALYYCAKVGRGHGYFDYWGQGTLVTVSS showed nd, nd, nd (controls 1 of 9).
Variant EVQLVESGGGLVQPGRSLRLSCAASGFTFDDYAMHWVRQAPGKGLEWVSGISWNIGSIGDADSVKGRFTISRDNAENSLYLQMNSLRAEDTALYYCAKVGRGGWYFDYWGQGTLVTVSS showed nd, nd, nd (controls 2 of 9).
Variant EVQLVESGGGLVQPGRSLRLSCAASGFTFDDYAMNWVRQAPGKGLEWVSGISWNSGSIGYADSVKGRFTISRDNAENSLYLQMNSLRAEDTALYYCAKVGDGGGYFCYWGQGTLVTVSS showed 3.70, nd, nd (controls 0 of 9).
Variant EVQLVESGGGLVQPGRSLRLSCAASGCTFDDYAMIWVRQAPGKGLEWVSGISWNSGSIGYADSVKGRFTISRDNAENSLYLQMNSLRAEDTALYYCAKVGRGGGYFDYWGQGTLVTVSS showed nd, nd, nd (controls 0 of 9).

Again, the first 2 entries without any signal:

Variant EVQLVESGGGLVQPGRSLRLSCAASGFTFWDYAMHWVRQAPGKGLEWVSGNSWNSGSIGYADSHKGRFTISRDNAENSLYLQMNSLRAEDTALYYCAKVGRGGGYFDYWGQGTLVTVSS gave nd, nd, nd (controls 0 of 9).
Variant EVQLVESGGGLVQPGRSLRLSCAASGFDFDDYAMHWVRQAPGKGLEWVSGISWNSRSIGVADSVKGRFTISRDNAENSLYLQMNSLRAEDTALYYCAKVGRGGGYFDYWGQGTLVTVSS gave nd, nd, nd (controls 1 of 9).

In this assay the parent's reference entry averaged 1.86; its copy inside this library read 0.88.
Background: pairings of library AAYL51 with three empty control strains gave a value in 21% of cases (median 4.54, 5th percentile 3.26). Values in that range, when seen in few replicates, are hard to tell from nonspecific mating. The control count says in how many pairings with the empty strains this scFv gave a signal.

Reference: Engelhart et al. 2022, doi:10.1038/s41597-022-01779-4. File: FLAb, binding data.